## Ab-14 heavy chain CDR variants: yeast mating affinities

Data: MIT Lincoln Laboratory AlphaSeq set, Engelhart et al. 2022, doi:10.1038/s41597-022-01779-4, as distributed in FLAb.

Antigen: PDVDLGDISGINAS, a 14-residue peptide of the SARS-CoV-2 spike HR2 region.

Parent scFv Ab-14: VH joined to VL by a 15-residue (Gly4Ser)3 linker. Changes lie in the heavy chain CDRs alone.
VH: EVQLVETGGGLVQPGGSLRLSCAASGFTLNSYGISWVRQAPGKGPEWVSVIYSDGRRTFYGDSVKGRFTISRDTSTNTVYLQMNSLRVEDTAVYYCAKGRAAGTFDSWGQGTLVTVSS
VL: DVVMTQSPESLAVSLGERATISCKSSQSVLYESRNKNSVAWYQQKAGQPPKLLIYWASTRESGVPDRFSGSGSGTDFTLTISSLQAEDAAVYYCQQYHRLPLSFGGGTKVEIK

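The parent was found by panning a naive human phage display library on the peptide. AAYL49 was designed without a model: most single CDR substitutions and a random sample of double and triple ones. In AlphaSeq, yeast of one mating type display the scFv and yeast of the other type display the target. The frequency of each diploid, read from paired DNA barcodes, reflects how well the two displayed proteins bind. A regression on co-assayed BCL2-family reference pairs converts the normalised counts of each replicate to an apparent Kd. The assay was run in three technical replicates.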

Each variant is given by its three heavy chain CDRs, as the data file delimits them; those of the parent are GFTLNSYGIS, VIYSDGRRTFYGDSVK, GRAAGTFDS.
The read-out is the apparent dissociation constant on a log10 scale (nM): the lower, the stronger.
Replicates are averaged; those with no signal do not enter the mean.
"n.d." marks a missing value. The strain was present, yet no cells mated with the target were sequenced in that replicate, which points to weak or no binding.
In this assay the parent's reference entry averaged 0.65; its copy inside this library read 4.11 (one replicate of three).
Empty control strains, which show no peptide, gave a signal in 15% of pairings with library AAYL49; the median was 4.06 and 95% of these signals were weaker than 2.83. No background was subtracted. Also given: how often the same scFv was detected with the empty control strains, with their mean in brackets.

CDR-H1	CDR-H2	CDR-H3	replicates, log10 nM	mean log10 Kd (nM)	signal with controls
SFTLNSYGIS	VIYSDGRRTFYGDSVK	GRAAGTCDS	n.d. / n.d. / n.d.	n.d.	0 of 9
GFTLNSYGIS	VIYSDGRRTFYGDAVL	GEAAGTFDS	0.79 / 0.92 / 0.93	0.88	1 of 9 (5.92)
GFTLNSYGIS	VIYSDGRRVFYGDSVK	GRAYGDFDS	n.d. / n.d. / n.d.	n.d.	4 of 9 (3.87)
PFTLNSDGIS	VIYSDGRRTFLGDSVK	GRAAGTFDS	n.d. / n.d. / n.d.	n.d.	0 of 9
GFTLNSYGIS	VIYLDGRRTMYGDSVK	GKAAGTFDS	n.d. / n.d. / n.d.	n.d.	1 of 9 (3.52)
GFTLNSYGMQ	VIYSDGRLTFYGDSVK	GRAAGTFDS	n.d. / n.d. / n.d.	n.d.	3 of 9 (3.69)
GFTLNSYGIS	VIYSDGRRTFYGDSVM	GRHAGTFDS	1.79 / 1.33 / 3.27	2.13	0 of 9
GFTLNSYGIK	VIYSDGRSTFYGDSVK	GRAAGTFQS	5.01 / 2.85 / n.d.	3.93	1 of 9 (3.58)
GFTHNSYGIS	PIYSDGRRTHYGDSVK	GRAAGTFDS	5.53 / n.d. / n.d.	5.53	2 of 9 (3.71)
GFTLNSYGPS	VIYSDGRRTFYGDSVK	NRAAGTFTS	n.d. / 3.26 / n.d.	3.26	2 of 9 (4.08)
GFTLNSPGIS	VIYSDGRRTFYGDSVK	GHAAQTFDS	n.d. / n.d. / 5.36	5.36	0 of 9
GFTLNSYGKG	VIYSDGRRTFYGDSVK	GRAAGTFDD	n.d. / 4.23 / 3.69	3.96	3 of 9 (4.22)
GFNLNEYGIS	VIYSDGRRTFYGGSVK	GRAAGTFDS	0.49 / 0.47 / 0.44	0.47	1 of 9 (2.98)
GFTLNAYGIS	VIYSDGRRTRYNDSVK	GRAAGTFDS	n.d. / n.d. / n.d.	n.d.	0 of 9
GFVLNSYGIS	VIYSDGRRTPYGDSVK	WRAAGTFDS	n.d. / n.d. / n.d.	n.d.	1 of 9 (3.52)
GFFLNSYGIS	VIYSDGRRTFYGDSVK	PRAAGTFDS	n.d. / n.d. / n.d.	n.d.	0 of 9
GFKLNSYGIS	VFYSDGRRTFYGDSVK	GRAAGTFDS	n.d. / n.d. / n.d.	n.d.	0 of 9
GFTLNSYGIS	VIYSDGRRTFYGDSVK	GRSAGTFDS	n.d. / n.d. / n.d.	n.d.	0 of 9
GFTLNSYGIS	VIYSDGRRTFMGDSVS	GRVAGTFDS	0.71 / 1.07 / 0.86	0.88	2 of 9 (4.06)
GFTLNSYGIS	VIYNDGRRTFYGDSVK	GRAAGVWDS	n.d. / n.d. / n.d.	n.d.	0 of 9
GFTLNSYGIS	VIYSDGRRTFYGPQVK	GRAALTFDS	n.d. / 4.45 / n.d.	4.45	0 of 9
GFTLNSYGIS	VIYSFGRRTFYGDSVK	RRAAGSFDS	n.d. / 3.26 / n.d.	3.26	0 of 9
GFTLNSYGIS	GIYSDGDRTFYGDSVK	GRVAGTFDS	3.96 / 3.51 / n.d.	3.73	3 of 9 (4.77)
GFDLNSYGIS	VIYSDGRRAFYGDSVK	GRWAGTFDS	0.24 / 0.37 / 0.30	0.30	1 of 9 (5.09)
GFDLNSYGIS	VIYSDGRRTFYGDSVS	GRAAGTVDS	n.d. / n.d. / n.d.	n.d.	1 of 9 (3.12)
GFTLNSYGIS	FIYSDGRRTFYGDSVK	GMAAGTFDS	n.d. / n.d. / n.d.	n.d.	0 of 9
FFTLNSYEIS	VIYIDGRRTFYGDSVK	GRAAGTFDS	n.d. / n.d. / n.d.	n.d.	2 of 9 (4.04)
GFTLNSYGAS	VIYSDGRRTFAGDSVK	GRAAGTADS	4.94 / 4.69 / n.d.	4.81	0 of 9
GFTLNSYGIN	VIYSDGRRTFYGDSVK	FRAAGTFDS	n.d. / n.d. / n.d.	n.d.	0 of 9
GFTLNSYGIS	VIYSDGRRTIYGDSMK	FRAAGTFDS	n.d. / n.d. / 5.89	5.89	1 of 9 (5.34)
GFTLNSYHIS	VIRSDGRRNFYGDSVK	GRAAGTFDS	5.32 / 4.83 / n.d.	5.08	8 of 9 (5.10)
GFTLNSYGIS	VIYSDGGRTFYGDRVK	GRAAGTFDS	n.d. / n.d. / n.d.	n.d.	0 of 9
GFTLNSYGIS	VIYSMGRRTWYGDSVK	GRAACTFDS	n.d. / n.d. / 3.10	3.10	1 of 9 (4.21)
GFTLNSYCIS	VIYSCGRRTFCGDSVK	GRAAGTFDS	n.d. / n.d. / n.d.	n.d.	0 of 9
GFTLNSYGIS	VIYSDGRRSFYGDSVA	GRAAGTFDS	2.47 / 2.78 / 3.04	2.76	2 of 9 (4.38)
VFTLNSYGIS	VIYSDGRQTFYGDSVK	PRAAGTFDS	n.d. / n.d. / n.d.	n.d.	0 of 9
GFTLFSYGIM	VIYSDGRRVFYGDSVK	GRAAGTFDS	n.d. / n.d. / 4.38	4.38	2 of 9 (4.35)
GFTLNSYGIS	SIYSDIRDTFYGDSVK	GRAAGTFDS	n.d. / n.d. / n.d.	n.d.	1 of 9 (4.12)
GFTLNSYQIS	VIYSDGCRTFYGDSVK	GRAAMTFDS	n.d. / n.d. / n.d.	n.d.	0 of 9
GFTLNMYGIS	VIYSDGRRTFYGDSVV	GRAWGTFDS	n.d. / 3.77 / n.d.	3.77	3 of 9 (3.79)

5 of these entries, quoted again:

{"CDR-H1": "SFTLNSYGIS", "CDR-H2": "VIYSDGRRTFYGDSVK", "CDR-H3": "GRAAGTCDS", "replicates, log10 nM": "n.d. / n.d. / n.d.", "mean log10 Kd (nM)": "n.d.", "signal with controls": "0 of 9"}
{"CDR-H1": "GFTLNSYGKG", "CDR-H2": "VIYSDGRRTFYGDSVK", "CDR-H3": "GRAAGTFDD", "replicates, log10 nM": "n.d. / 4.23 / 3.69", "mean log10 Kd (nM)": "3.96", "signal with controls": "3 of 9 (4.22)"}
{"CDR-H1": "GFTLNSYGMQ", "CDR-H2": "VIYSDGRLTFYGDSVK", "CDR-H3": "GRAAGTFDS", "replicates, log10 nM": "n.d. / n.d. / n.d.", "mean log10 Kd (nM)": "n.d.", "signal with controls": "3 of 9 (3.69)"}
{"CDR-H1": "GFTLNSYGIS", "CDR-H2": "VIYSDGRRTFMGDSVS", "CDR-H3": "GRVAGTFDS", "replicates, log10 nM": "0.71 / 1.07 / 0.86", "mean log10 Kd (nM)": "0.88", "signal with controls": "2 of 9 (4.06)"}
{"CDR-H1": "GFTLNSYGIS", "CDR-H2": "VIYSDGRRTFYGPQVK", "CDR-H3": "GRAALTFDS", "replicates, log10 nM": "n.d. / 4.45 / n.d.", "mean log10 Kd (nM)": "4.45", "signal with controls": "0 of 9"}